In the NIST ThermoML archive (doi:10.1016/j.jct.2012.03.015):

Assay: activity coefficient (dimensionless); of the first substance listed, at infinite dilution; xn = mol fraction of the nth substance listed
Settings: 101 kPa, Liquid, Chromatography, x1 = 0

CCCCOCCCC [dibutyl ether] + COCC[N+]1(C)CCCC1.O=S(=O)([N-]S(=O)(=O)C(F)(F)F)C(F)(F)F
Settings | activity coefficient
318.15 K | 15.8
328.15 K | 15
338.15 K | 14.2
348.15 K | 13.4
358.15 K | 12.8
368.15 K | 12.2
